{"source": "patent US11864911B2", "about": "“Methods, apparatuses, and systems for inductive heating of foreign metallic implants” (THE BOARD OF REGENTS OF THE UNIVERSITY OF TEXAS SYSTEM, priority 2016, dated 2024)", "system": "Pseudomonas aeruginosa (PA01) biofilm", "assay": "ciproflaxin on PA01 biofilm on metal washers with or without prior AMF exposure, bacterial number enumerated", "conditions": "concentrations used, without previous initial AMF exposure"}
{"smiles": "O=C(O)c1cn(C2CC2)c2cc(N3CCNCC3)c(F)cc2c1=O", "note": "[ciproflaxin, ciprofloxacin]", "values": [{"measurement": "therapeutic effect for reducing the biofilm", "value": "not therapeutic"}]}
